What was measured:
sigma-2 binding site = molecular target: T1, sigma-2 binding site (Cavia porcellus, UniProt H0V073); test: biochemical; set-up: species or system guinea pig; conditions: SIGMA-2 KI vs. 3H-DTG + P[…]
T1 construct: Guinea pig whole membrane preparations (P2 microsomal fraction); from tissue; host or cells: guinea pig membranes (P2 microsomal fraction), as described by Weber et al; brain inferred from the sister test b489

By UniProt entry, the sequences of proteins in these tests, tags left out. Residues count along the entry.
UniProt H0V073, 1-176: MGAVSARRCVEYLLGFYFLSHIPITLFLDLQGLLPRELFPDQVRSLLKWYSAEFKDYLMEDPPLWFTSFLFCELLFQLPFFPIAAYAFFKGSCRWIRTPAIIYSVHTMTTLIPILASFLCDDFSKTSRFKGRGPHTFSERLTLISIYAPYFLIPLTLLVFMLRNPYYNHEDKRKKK
UniProt Q60492, whole entry: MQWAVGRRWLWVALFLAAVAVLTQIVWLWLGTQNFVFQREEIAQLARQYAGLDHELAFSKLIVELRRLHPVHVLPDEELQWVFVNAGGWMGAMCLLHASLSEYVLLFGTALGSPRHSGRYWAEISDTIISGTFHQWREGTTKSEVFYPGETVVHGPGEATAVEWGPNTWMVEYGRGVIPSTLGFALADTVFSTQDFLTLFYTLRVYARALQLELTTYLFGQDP

sigma-1 binding site = molecular target: T2, sigma-1 binding site (Cavia porcellus, UniProt Q60492); test: biochemical; set-up: species or system guinea pig
T2 construct: Guinea pig whole membrane preparations (P2 microsomal fraction); from tissue; host or cells: guinea pig membranes (P2 microsomal fraction), as described by Weber et al; brain inferred from the sister test b489
Protocol: [^3 H]DTG was purchased from DuPont/NEN.
The radioactivity on the filters was determined by scintillation spectrometry at an efficiency of about 50% using Cytoscint (ICN) scintillation fluid.

| Compound | Ki (sigma-2 binding site) [nM] | also measured |
| --- | --- | --- |
| CC(C)=CCN1CCC2(C)c3cc(O)ccc3CC1C2C (single isomer, unassigned; (-)) [(-)Pentazocine, reference compound] | 242 |  |
| OC(CCCN1CCN(c2ncc(F)cn2)CC1)c1ccc(F)cc1 (stereo not shown) [BMY-14802, reference compound] |  | Ki (sigma-1 binding site; Table 10, read-out: SIGMA-1 KI vs. 3H-PENTAZOCINE MEAN): 271 nM |
| CC(C)=CCN1CCC2(C)c3cc(O)ccc3CC1C2C (single isomer, unassigned; (+)) [(+)Pentazocine, reference compound] | 906 |  |
| OCCN1CCN(CCCN2c3ccccc3Sc3ccc(C(F)(F)F)cc32)CC1 [Fluphenazine, reference compound] |  | S1/S2 Ratio (sigma-1 binding site; guinea pig, microsomes): 0.470 |

Source: patent US6057371A, “Sigma receptor ligands and the use thereof” (Virginia Commonwealth University, priority 1992, dated 2000)
